# Test results reported in patent publication US4757079A, “Anti-hypertensive piperidine compounds” (Dynamac Corporaton, priority 1986, dated 1988).
# Structures can show the parent of a compound that is named as a salt.
# Tested on: release of acetylcholine
# Conditions: 17.5 mg/L; in the presence of DFP; stimulation at 1 Hz
structure (smiles),measurement,value
"CN1CCC(/C=C/c2cccc3ccccc23)CC1 [B-120, 1-methyl-4-(1-naphthylvinyl)piperidine hydrochloride]",release of acetylcholine normally elicited by stimulation,completely blocked
